Measured values taken from patent US20170312293A1, “ANTIMICROBIAL WATER DISPERSIBLE COMPOSITION COMPRISING ZINC PYRITHIONE” (KOLON LIFE SCIENCE, INC., priority 2014, published 2017).

Assay: Stability of zinc pyrithione aqueous dispersion: layer separation degree via centrifugation, naked eye
Type: physicochemical
Conditions: zinc pyrithione aqueous dispersion including the antiseptic, layer separation degree (supernatant height / total height) via centrifugation
Protocol: First, a zinc pyrithione aqueous dispersion including an antiseptic which was identified to have antiseptic activity was prepared and then stored at room temperature (R.T.), at a temperature ranging from 10° C. to 20° C., or 60° C., and variation in physical properties related to stability and dispersibility were checked.
Variation in physical properties was determined depending on whether or not assay, viscosity, pH and particle size were changed, and variation in dispersibility was determined by checking layer separation degree using centrifugation and measuring dispersion stability using Turbiscan for detecting particle size variation and phase separation.
Stability was evaluated by checking a layer separation degree (production of supernatant) using centrifugation by the naked eye and was divided into grades based on the proportion of the height of the layer-separated supernatant with respect to the total height of the sample. With respect to the grades, layer separation degree (production of supernatant) of less than 5% was regarded as “high”, layer separation degree of 10% or less was regarded as “medium-high”, layer separation degree of 15% or less was regarded as “medium”, layer separation degree of 20% or less was regarded as “medium-low” and layer separation degree of higher than 20% was regarded as “low”.

Ethylhexyl glycerin
Stability of zinc pyrithione aqueous dispersion: Medium-high (layer separation degree of 10% or less was regarded as “medium-high”)
